Drawing on patent US20180369355A1 (TEXAS A AND M UNIVERSITY SYSTEM, published 2018), this text covers Kd for one substance.

Amino acid sequences for entries named in this document (tags omitted). Residues count along the entry.
UniProt Q53653, 221-559 limits assumed: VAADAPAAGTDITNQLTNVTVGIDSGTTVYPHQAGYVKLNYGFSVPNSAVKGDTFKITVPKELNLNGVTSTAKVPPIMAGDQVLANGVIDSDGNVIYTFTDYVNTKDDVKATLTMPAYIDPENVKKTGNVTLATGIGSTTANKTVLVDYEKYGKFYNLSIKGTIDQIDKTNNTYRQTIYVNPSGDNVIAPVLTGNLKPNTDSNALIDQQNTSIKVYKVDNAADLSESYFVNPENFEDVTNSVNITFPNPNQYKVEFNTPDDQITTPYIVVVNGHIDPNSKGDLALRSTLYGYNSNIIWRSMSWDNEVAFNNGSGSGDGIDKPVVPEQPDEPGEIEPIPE

As a reminder, the Kd is the concentration at which binding is half-saturated.

The test addresses ClfA221-559 (S. aureus strain Newman) (UniProt Q53653). The test is described as follows: SPR (Biacore 3000); ClfA221-559 0.05-6.4 nM over captured Tefibazumab. On the technique in general: SPR reads the build-up and loss of mass on a sensor chip optically.

Consider Tefibazumab (antibody), for which the Kd was 0.29 nM.
